# Measurements as given in PMC11637191, “The pH-dependence of efflux ratios determined with bidirectional transport assays across cellular monolayers” (International Journal of Pharmaceutics: X, 2024).
# Experiments:
# MDCK-II-MDR1 cells = settings: pH 7, iso-pH method
# P-gp (MDR1) = assay: in vitro; settings: dog
smiles,measurement,setting,value
COc1cccc2c1C(=O)c1c(O)c3c(c(O)c1C2=O)C[C@@](O)(C(=O)CO)C[C@@H]3O[C@H]1C[C@H](N)[C@H](O)[C@H](C)O1 [Doxorubicin],"logPapp, A⟶B",MDCK-II-MDR1 cells,-6.89 P in cm/s
same,efflux ratio,"P-gp (MDR1); MDCK-MDR1, pH 5",0.6
same,efflux ratio,"P-gp (MDR1); MDCK-MDR1, pH 6",1.4
same,efflux ratio,"P-gp (MDR1); MDCK-MDR1, pH 7",6
same,efflux ratio,"P-gp (MDR1); MDCK-MDR1, pH 8",26
